Experiment: Thermo Scientific Hypersil GOLD aQ, 100 × 2.1 mm, 1.9 µm, 30 °C, 0.3 mL/min, estimated dead time 0.73 min; A: water + 0.01% formic acid + 4 mM ammonium formate; B: methanol + 0.01% formic acid + 4 mM ammonium formate; gradient (min/%B) 0/5 1/5 8/100 12/100
Conditions: stereoisomer not certain

CCOP(=S)(OCC)Oc1ncn(-c2ccccc2)n1
LC retention time: 9.79 min

Reference: the RepoRT retention time repository (doi:10.1016/j.foodchem.2015.11.070)
